Test results taken from ChEMBL document CHEMBL1148439, “A phenylnorstatine inhibitor binding to HIV-1 protease: geometry, protonation, and subsite-pocket interactions analyzed at atomic resolution” (J Med Chem, 2004).

Target: Human immunodeficiency virus type 1 protease (Human immunodeficiency virus 1, UniProt Q72874)
Assay: Tested for inhibitor binding of wild-type HIV PR
Design: species or system human immunodeficiency virus type1

Work on `NC(=O)[C@H](CCC(=O)O)NC(=O)[C@H](CCC(=O)O)NC(=O)[C@H](Cc1ccccc1)NC(=O)[C@H](O)[C@H](Cc1ccccc1)NC(=O)OCc1ccccc1` yielded a Ki of 0.18 nM.
